The target in one assay is human ERβ (Homo sapiens, UniProt Q92731). The following applies: 1 μM; strain cwp1Δcwp2Δ.
In another assay the target is human ERα (Homo sapiens, UniProt P03372). To be noted: 1 μM; strain cwp1Δcwp2Δ.
The next assay concerns the target T1, human PR (Homo sapiens, UniProt P06401).
T1 sequence (P06401 1-933): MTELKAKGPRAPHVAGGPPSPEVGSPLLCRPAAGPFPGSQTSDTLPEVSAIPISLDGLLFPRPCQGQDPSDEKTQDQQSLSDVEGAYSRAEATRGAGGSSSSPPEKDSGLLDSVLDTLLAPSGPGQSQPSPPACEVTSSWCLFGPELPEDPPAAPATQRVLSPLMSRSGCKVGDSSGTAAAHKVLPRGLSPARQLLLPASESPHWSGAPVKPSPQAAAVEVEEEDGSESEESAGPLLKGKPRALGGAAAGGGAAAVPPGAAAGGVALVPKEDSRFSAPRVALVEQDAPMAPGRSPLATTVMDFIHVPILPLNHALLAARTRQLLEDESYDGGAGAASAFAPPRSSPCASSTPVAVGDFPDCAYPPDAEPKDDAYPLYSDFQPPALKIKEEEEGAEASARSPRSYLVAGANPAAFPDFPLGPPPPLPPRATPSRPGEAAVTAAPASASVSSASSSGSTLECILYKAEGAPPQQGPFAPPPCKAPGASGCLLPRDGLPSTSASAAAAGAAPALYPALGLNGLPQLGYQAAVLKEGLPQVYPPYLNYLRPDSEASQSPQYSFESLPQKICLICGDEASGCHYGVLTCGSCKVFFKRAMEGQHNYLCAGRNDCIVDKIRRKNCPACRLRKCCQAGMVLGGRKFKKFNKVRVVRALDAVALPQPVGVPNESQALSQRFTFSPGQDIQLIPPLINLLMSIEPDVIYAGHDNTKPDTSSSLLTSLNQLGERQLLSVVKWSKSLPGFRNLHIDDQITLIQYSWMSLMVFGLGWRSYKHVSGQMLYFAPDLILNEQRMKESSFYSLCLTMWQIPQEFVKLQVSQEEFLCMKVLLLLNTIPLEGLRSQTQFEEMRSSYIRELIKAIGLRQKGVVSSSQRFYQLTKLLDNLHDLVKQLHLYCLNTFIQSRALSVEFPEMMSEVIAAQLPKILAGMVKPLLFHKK
The experiment in a line: PR antagonist yeast reporter gene assay (competition with PS at EC50). The class given is cell-based.

Sequences of proteins named here, by UniProt entry; tags and fusion partners are left off.
UniProt Q92731, whole entry: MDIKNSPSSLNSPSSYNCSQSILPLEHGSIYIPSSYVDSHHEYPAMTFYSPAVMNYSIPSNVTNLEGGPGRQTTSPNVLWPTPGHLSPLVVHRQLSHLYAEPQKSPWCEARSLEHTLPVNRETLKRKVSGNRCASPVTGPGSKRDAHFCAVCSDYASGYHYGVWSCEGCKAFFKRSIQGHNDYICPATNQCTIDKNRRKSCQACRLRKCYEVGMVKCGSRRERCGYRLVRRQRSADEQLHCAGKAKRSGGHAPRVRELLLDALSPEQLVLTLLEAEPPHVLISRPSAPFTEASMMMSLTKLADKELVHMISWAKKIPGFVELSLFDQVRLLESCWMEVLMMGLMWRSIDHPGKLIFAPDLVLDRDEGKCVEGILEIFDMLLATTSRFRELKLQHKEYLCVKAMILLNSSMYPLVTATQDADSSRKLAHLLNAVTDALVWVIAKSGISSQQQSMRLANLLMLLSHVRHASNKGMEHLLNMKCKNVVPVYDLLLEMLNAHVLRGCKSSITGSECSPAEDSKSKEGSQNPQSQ
UniProt P03372, whole entry: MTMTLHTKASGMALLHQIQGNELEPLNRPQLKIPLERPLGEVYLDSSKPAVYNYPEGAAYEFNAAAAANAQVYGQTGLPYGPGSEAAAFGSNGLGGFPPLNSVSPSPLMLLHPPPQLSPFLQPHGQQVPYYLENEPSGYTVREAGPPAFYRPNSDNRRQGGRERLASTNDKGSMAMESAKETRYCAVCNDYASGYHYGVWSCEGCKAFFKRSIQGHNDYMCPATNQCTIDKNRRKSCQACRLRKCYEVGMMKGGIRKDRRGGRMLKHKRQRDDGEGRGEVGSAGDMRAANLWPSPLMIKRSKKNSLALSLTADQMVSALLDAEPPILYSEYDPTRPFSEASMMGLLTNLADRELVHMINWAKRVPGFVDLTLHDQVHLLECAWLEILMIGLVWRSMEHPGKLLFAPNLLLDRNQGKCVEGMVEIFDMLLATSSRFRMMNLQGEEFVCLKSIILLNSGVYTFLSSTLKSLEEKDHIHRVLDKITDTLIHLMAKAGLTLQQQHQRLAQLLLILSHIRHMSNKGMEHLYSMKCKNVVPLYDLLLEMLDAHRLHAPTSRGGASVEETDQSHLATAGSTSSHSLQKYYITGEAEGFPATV

For `C[C@]12CC[C@@H]3c4ccc(O)cc4C[C@@H](CCCCCCCCC[S+]([O-])CCCC(F)(F)C(F)(F)F)[C@H]3[C@@H]1CC[C@@H]2O` (stereo partly shown) [ICI, ICI 182, 780], the “basal β-gal expression (inverse agonist activity)” value at human ERβ and at human ERα was “strongly inhibited” each time.

In the case of `CC#C[C@]1(O)CC[C@H]2[C@@H]3CCC4=CC(=O)CCC4=C3[C@@H](c3ccc(N(C)C)cc3)C[C@@]21C` [Mif, mifepristone], the Maximum inhibition at human PR (strain cwp1Δcwp2Δ) came to 84.6%; at human PR (strain cwp1Δpdr5Δ), 87.2%.

The values are drawn from PMC7251871 (2020).
